The conditions of the data set: male, SD, rat, in vivo.

For `CC(=O)O[C@H]1C(=O)[C@@]2(C)[C@H]([C@H](OC(=O)c3ccccc3)[C@]3(O)C[C@H](OC(=O)[C@H](O)[C@@H](NC(=O)c4ccccc4)c4ccccc4)C(C)=C1C3(C)C)[C@]1(OC(C)=O)CO[C@@H]1C[C@@H]2O` [paclitaxel], the “absolute bioavailability F” value turned out to be 2.89%.

The values are drawn from US20150328157A1, “APPLICATION OF SILICON DIOXIDE AEROGEL AS NANO-DRUG CARRYING SYSTEM IN PHARMACY” (GRADUATE SCHOOL AT SHENZHEN, TSINGHUA UNIVERSITY, priority 2012, published 2015).
